Reference: PubChem BioAssay AID485273 (Sanford-Burnham Center for Chemical Genomics, 2010)
Only a part is listed here, and it is no random draw. Active and inactive are the calls of the source. No stated cut-off is given here; in the data, active means inhibition above about 45% (passing the limit was not always enough); inconclusive means no clear call, values can overlap the other calls.

Protein sequences, listed by entry. Tags and fused reporters are not part of them.
UniProt P61088, whole entry, looked up: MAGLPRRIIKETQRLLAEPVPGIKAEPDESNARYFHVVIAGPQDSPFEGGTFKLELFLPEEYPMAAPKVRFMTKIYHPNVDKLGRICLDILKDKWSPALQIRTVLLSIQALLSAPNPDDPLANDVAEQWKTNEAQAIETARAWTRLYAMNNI

What follows are compounds tested against Ubiquitin-conjugating enzyme E2 N (Homo sapiens) (UniProt P61088) (assay: blockers of UBC13 ubiquitin chain synthesis – biochemical, TR-FRET, uHTS, primary screen (AID 485273)). Settings: UBC13 polyubiquitin chain formation, at 20 µM, active compounds read high.

SMILES | inhibition
Cc1ccc(NP(C)(=O)Oc2ccccc2)c(C)c1 (stereo not drawn) | inactive: 2.8%
COc1ccccc1OP(C)(=O)Nc1ccc(C)cc1 (stereo not drawn) | inactive: 3.1%
CCOC(=O)c1ccc(NP(C)(=O)Oc2ccccc2)cc1 (stereo not drawn) | inactive: 8.9%
Cc1cc(C)cc(OP(C)(N)=O)c1 (stereo not drawn) | inactive: -0.5%
COc1ccc(OP(C)(=O)Nc2cccc(F)c2)cc1 (stereo not drawn) | inactive: 3.3%
COc1ccccc1OP(C)(=O)Nc1cc(Cl)ccc1C (stereo not drawn) | inactive: 11.7%
O=[N+]([O-])c1cc([N+](=O)[O-])c(Nc2cccnc2)c([N+](=O)[O-])c1 | inactive: -43.9%
Cc1cccc(C)c1OP(C)(N)=O (stereo not drawn) | inactive: -6%
CC(C)(C)c1ccc(OP(C)(=O)Nc2ccc(SC(F)(F)F)cc2)cc1 (stereo not drawn) | inactive: -3.7%
CCN(CC)CCCOC(=O)C(O)(c1ccccc1)c1ccccc1 | inactive: 6.6%
CCOC(=O)c1ccc(NP(C)(=O)Oc2ccc(OC)cc2)cc1 (stereo not drawn) | inactive: 2.7%
O=[N+]([O-])c1cc([N+](=O)[O-])c(O)c([N+](=O)[O-])c1.c1ccc(Oc2ccncc2)cc1 | inactive: -3%
CCOP(C)(=S)SCC(=O)NC(C)C(=O)O (stereo not drawn) | inactive: -0.8%
CP(=O)(Nc1ccccn1)Oc1ccc(Cl)cc1 (stereo not drawn) | inactive: 1.5%
CP(=O)(Oc1ccccc1)OC(c1ccccc1)C(F)(F)F (stereo not drawn) | inactive: 5.3%
Cc1cccc(C)c1OP(C)(=O)Nc1ccc(SC(F)(F)F)cc1 (stereo not drawn) | inactive: -6.4%
CP(=O)(Nc1ccc(SC(F)(F)F)cc1)Oc1ccc(Cl)cc1 (stereo not drawn) | inactive: 10%
Cc1cc(C)cc(OP(C)(=O)Nc2ccc(SC(F)(F)F)cc2)c1 (stereo not drawn) | inactive: 11.9%
CP(=O)(NC(=O)Nc1ccccc1)Oc1ccccc1 (stereo not drawn) | inactive: 2.9%
CCc1ccc(OP(C)(=O)N2CCN(c3ccc([N+](=O)[O-])cc3)CC2)cc1 (stereo not drawn) | inactive: -14.7%
CP(=S)(Nn1cnnc1)Oc1ccccc1 (stereo not drawn) | inactive: -1.2%
CP(=O)(Nc1ccccc1Br)Oc1ccccc1 (stereo not drawn) | inactive: -0.7%
COc1ccccc1OP(C)(=O)Nc1ccccc1 (stereo not drawn) | inactive: -6.9%
COc1ccccc1OP(C)(=O)Nc1c(C)cccc1C (stereo not drawn) | inactive: 2.2%
CN1CCCCC1COC(=O)C1(O)c2ccccc2CCc2ccccc21 (stereo not drawn) | inactive: 7.5%
CCCOc1ccc(NP(C)(=O)Oc2ccc(Cl)cc2)cc1 (stereo not drawn) | inactive: 1.7%
CP(=O)(Nc1ccc(SC(F)(F)F)cc1)Oc1ccccc1 (stereo not drawn) | inactive: 12.1%
CCOC(=O)C(CC)C1=NC(C)(C)Cc2ccccc21.O=[N+]([O-])c1cc([N+](=O)[O-])c(O)c([N+](=O)[O-])c1 (stereo not drawn) | inactive: -8.8%
